From paper PMC4314249, “Characterizing the Peroxisome Proliferator-Activated Receptor (PPARγ) Ligand Binding Potential of Several Major Flame Retardants, Their Metabolites, and Chemical Mixtures in House Dust” (Environmental Health Perspectives, 2014)

Amino acid sequences for entries named in this document (tags omitted). Residues count along the entry.
UniProt P37231, 238-503 limits assumed: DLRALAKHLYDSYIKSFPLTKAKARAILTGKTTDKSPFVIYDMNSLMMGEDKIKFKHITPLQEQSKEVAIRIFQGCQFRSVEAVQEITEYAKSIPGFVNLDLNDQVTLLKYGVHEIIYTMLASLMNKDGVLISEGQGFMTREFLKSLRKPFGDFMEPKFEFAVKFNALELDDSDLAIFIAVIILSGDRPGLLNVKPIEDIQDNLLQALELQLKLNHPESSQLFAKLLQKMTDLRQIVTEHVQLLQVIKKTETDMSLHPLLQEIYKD

Target: human PPARγ ligand-binding domain (Homo sapiens, UniProt P37231)
Test: PolarScreen PPARγ-Competitor fluorescence polarization ligand binding assay

CCCCOP(=O)(OCCCC)OCCCC
IC50 (1.25 nM PPARγ Green, 38 nM PPARγ LBD, 3 h room temperature): 137 µM | inhibition of the binding between the probe and the PPARγ LBD (2,500 μM): completely inhibit | Kd (read-out: Kd (dissociation constant), calculated from IC50 by equation 3): 71.5 µM | Relative potency (rosiglitazone set at 1): 0.0017
